In assay [1] the target is T1, PTH-2 receptor (Homo sapiens, UniProt P49190).
T1 construct: expressed in transfected cells; host or cells: COS-7 cells, transient transfection, vector pcDNAI/Amp
Kind of assay: Competition radioligand binding, COS-7 cells transfected with human PTH-2 receptor. Here is the method:
(§1) The cDNAs encoding the human PTH/PTHrP receptor (Schipani, E. et al., Endocrinology 132:2157-2165 (1993)) and the human PTH-2 receptor (Usdin, T. et al., J. Biol. Chem. 270:15455-15458 (1995)) were carried on the expression vectors pcDNA-1 and pcDNAI/Amp (InVitrogen, San Diego, Calif.), respectively. COS-7 cells were cultured and transfected as described previously (Lee, C. et al., Mol. Endocrinol. 9:1269-1278 (1995)). Cells were transfected in 24-well plates using plasmid DNA (200 ng/well) purified by cesium chloride/ethidium bromide gradient centrifugation. Ligand binding and cAMP accumulation assays were performed three days after transfection, by which time the cell density reached 500,000±100,000 cells/well.
(§2) Binding reactions were performed as described previously. Id. Each well (final volume: […]) contained 26 fmole of ^125I-[Nle^8,21,Tyr^34]rPTH(1-34)NH2 (100,000 CPM) and various amounts (0.4-300 pmole) of an unlabeled competitor ligand, both diluted in binding buffer (50 mM Tris-HCl, pH 7.7, 100 mM NaCl, 5 mM KCl, 2 mM CaCl, 5% heat-inactivated horse serum, 0.5% heat-inactivated fetal bovine serum). Incubations were at room temperature for 2 hours, except for experiments involving Scatchard analysis, which were performed at 4° C. for 6 hours. At the end of the binding reaction, the cells were rinsed 3 times with 0.5 ml of binding buffer, lysed with 0.5 ml of 5M NaOH, and the entire lysate was counted. Nonspecific binding of tracer (NSB), determined in wells containing 1 μM of [NleTyr^8,21,Tyr^34]rPTH-(1-34)NH2, was ˜1% of total counts added. Maximum specific binding (B0) was calculated as the total radioactivity bound to cells in the absence of unlabeled PTH ligand, minus NSB. […] For Scatchard analyses, homologous competition binding studies were performed that used ^125I-[-NleTyr^8,21,Tyr^34]rPTH-(1-34)NH2 (26 fmole/well) and varying amounts (1.2-300 pmol) of the same unlabeled ligand. Estimates of the number of receptors/cell derived from these studies assumed a single class of binding sites and a transfection efficiency of 20% (Abou-Samra, A. B. et al., Proc. Natl. Acad. Sci (USA) 89:2732-2736 (1992)).

Sequences of proteins named here, by UniProt entry; tags and fusion partners are left off. Residues count along the entry.
UniProt P49190, 25-550: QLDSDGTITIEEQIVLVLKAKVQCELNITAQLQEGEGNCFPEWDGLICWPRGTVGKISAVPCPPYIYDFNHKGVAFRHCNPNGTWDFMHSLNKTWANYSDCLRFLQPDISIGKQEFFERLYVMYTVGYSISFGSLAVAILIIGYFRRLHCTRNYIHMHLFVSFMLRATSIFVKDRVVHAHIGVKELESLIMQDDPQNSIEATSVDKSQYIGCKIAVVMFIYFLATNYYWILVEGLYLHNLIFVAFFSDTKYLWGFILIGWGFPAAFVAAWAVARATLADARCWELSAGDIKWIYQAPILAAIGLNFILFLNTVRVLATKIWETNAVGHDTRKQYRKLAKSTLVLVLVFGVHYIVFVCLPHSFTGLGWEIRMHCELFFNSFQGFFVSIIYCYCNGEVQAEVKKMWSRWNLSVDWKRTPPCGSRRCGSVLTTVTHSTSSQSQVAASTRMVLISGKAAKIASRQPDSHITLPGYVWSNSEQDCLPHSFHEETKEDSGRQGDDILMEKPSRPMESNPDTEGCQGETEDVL

The next assay has as its target T2, PTH/PTHrP receptor (Homo sapiens, UniProt Q03431).
T2 construct: expressed in transfected cells; host or cells: COS-7 cells, transient transfection, vector pcDNA-1
T2 sequence (Q03431 27-593): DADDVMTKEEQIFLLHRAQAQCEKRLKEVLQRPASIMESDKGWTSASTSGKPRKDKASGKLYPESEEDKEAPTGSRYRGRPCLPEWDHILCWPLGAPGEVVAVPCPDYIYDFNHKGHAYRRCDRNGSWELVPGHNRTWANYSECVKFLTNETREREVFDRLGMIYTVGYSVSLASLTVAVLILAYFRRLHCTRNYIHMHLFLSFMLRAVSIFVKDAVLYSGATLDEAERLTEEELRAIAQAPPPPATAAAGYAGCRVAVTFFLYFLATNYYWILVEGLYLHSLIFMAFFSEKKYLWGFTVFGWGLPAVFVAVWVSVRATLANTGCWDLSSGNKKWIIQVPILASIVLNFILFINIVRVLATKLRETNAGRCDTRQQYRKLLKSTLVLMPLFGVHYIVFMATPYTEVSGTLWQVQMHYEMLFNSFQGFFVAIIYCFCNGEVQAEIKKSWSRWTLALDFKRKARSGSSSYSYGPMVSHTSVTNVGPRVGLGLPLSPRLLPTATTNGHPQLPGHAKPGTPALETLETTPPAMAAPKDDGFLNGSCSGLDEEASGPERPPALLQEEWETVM
Briefly: Competition radioligand binding, COS-7 cells transfected with human PTH/PTHrP receptor. Here is the method: as §1, §2

For assay [2], the target named is T1, PTH-2 receptor. Briefly: Ligand-induced intracellular cAMP accumulation, COS-7 cells expressing human PTH-2 receptor. In kind it is cell-based. Conditions: read-out: cAMP accumulation EC50, PTH-2 receptor, 1h at room temperature, IBMX, mean ± s.e.m. The method, then:
as §1
Transfected COS-7 cells were rinsed with […] of binding buffer. 200 μl of IBMX buffer (DMEM containing 2 mM IBMX, 1 mg/ml bovine serum albumin, 35 mM Hepes-NaOH, pH 7.4) and […] of binding buffer or binding buffer containing various amounts of a PTH or PTHrP analog were then added. The plates were incubated for 60 minutes at room temperature. The buffer was then withdrawn and the cells lysed by placing the plates on powdered dry ice and adding 0.5 ml of 50 mM HCl. The acid lysate was diluted 1/30 in dH2O, and an aliquot (5-50 μl) analyzed for cAMP content by radioimmunoassay. […] For antagonist studies, the inhibitor peptide [Leu^11,D-Trp^12]hPTHrP(7-34)NH2or [Trp^23,Tyr^36]hPTHrP-(1-36)N2H was applied to COS-7 cells in 100 μl of binding buffer two minutes prior to the addition of IBMX buffer that contained a near-maximal stimulatory dose (1.5 nM) of [Tyr^34]hPTH-(1-34)NH2 agonist peptide. The cells were then incubated for 30 minutes at room temperature, and the resulting intracellular cAMP was measured by RIA. Data were analyzed using the AssayZap software (Elsevier Science Publishers BV, Cambridge, United Kingdom).
For orientation: cAMP levels reflect the balance of adenylyl cyclase and phosphodiesterase activity.

[3] abbreviates: radioligand 125I-[Nle8,21,Y34]rPTH-(1-34)NH2, 2 hours at room temperature, mean ± s.e.m., read-out: Binding IC50, PTH-2 receptor.
The mark [4] stands for this setting: radioligand 125I-[Nle8,21,Y34]rPTH-(1-34)NH2, 2 hours at room temperature, mean ± s.e.m., read-out: Binding IC50, PTH/PTHrP receptor.
The mark [5] stands for this setting: read-out: Binding IC50, PTH-2 receptor, radioligand 125I-[Nle8,21,Y34]rPTH-(1-34)NH2, 2 hours at room temperature, mean ± s.e.m.
Setting [6] is: read-out: Binding IC50, PTH/PTHrP receptor, radioligand 125I-[Nle8,21,Y34]rPTH-(1-34)NH2, 2 hours at room temperature, mean ± s.e.m.

This passage reports IC50 and EC50 results from patent publication US6362163B1, “Parathyroid hormone-related peptide analogs” (The General Hospital Corporation, priority 1996, dated 2002).

Read-outs that look alike come from different tables or passages of the source.

Turning to [E22, W23, Y36]hPTHrP-(15-36)NH2, the IC50 at PTH-2 receptor [1] (setting [3]) is 137 ± 36 nM; at PTH/PTHrP receptor (setting [4]) it was greater than 10000 nM.

A word on the EC50: it is the midpoint of the concentration-response curve. With [H5, F23, Y34]hPTH-(1-34)NH2, the IC50 on PTH-2 receptor [1] (setting [5]) and at PTH/PTHrP receptor (setting [6]) was greater than 10000 nM each time. Moreover, the EC50 on PTH-2 receptor [2] is greater than 1000 nM.

Regarding “[Ile^5, Trp^23]PTHrP-(1-36) [[15, W23, Y36]hPTHrP-(1-36)NH2]”, the IC50 was determined as 10 ± 1 nM at PTH-2 receptor [1] (setting [5]) and 16 ± 3 nM on PTH/PTHrP receptor (setting [6]). On PTH-2 receptor [2], the 50% effective concentration (EC50) was 0.5 ± 0.3 nM.

Regarding “[Ile^5]PTHrP-(1-36) [[15, Y36]hPTHrP-(1-36)NH2]”, the IC50 on PTH-2 receptor [1] (setting [5]) worked out at 695 ± 171 nM. Moreover, at PTH-2 receptor [2], the EC50 stood at 7 nM.

Turning to “[Nle^8,21, Tyr^34]rat(r)PTH(1-34)NH2 [[Nle8, 21, Y34]rPTH-(1-34)NH2, reference compound]”, the IC50 at PTH-2 receptor [1] (setting [3]) amounted to 11 ± 2 nM.

With “[Tyr^36]hPTHrP-(1-36)NH2 [[Y36]hPTHrP-(1-36)NH2, reference compound]”, on PTH-2 receptor [1] (setting [5]), the IC50 amounted to 2140 nM. The EC50 at PTH-2 receptor [2] was greater than 1000 nM.

As for [W23, Y36]hPTHrP-(15-36)NH2, the IC50 on PTH-2 receptor [1] (setting [3]) was 370 ± 100 nM; at PTH/PTHrP receptor (setting [4]), greater than 10000 nM.

On to [Y34]hPTH-(15-34)NH2, for which the values for the IC50 on PTH-2 receptor [1] (setting [3]) and on PTH/PTHrP receptor (setting [4]) were 624 ± 116 nM and greater than 10000 nM, respectively.

As for [Y36]hPTHrP-(15-36)NH2, the figures for the IC50 at PTH-2 receptor [1] (setting [5]) and on PTH/PTHrP receptor (setting [6]) were 4970 nM and greater than 10000 nM, respectively.

In the case of “hPTH-(1-14)/[Y34]hPTHrP-(15-34)NH2 [Hybrid-2]”, the IC50 worked out at 750 ± 210 nM at PTH-2 receptor [1] (setting [5]) and 497 ± 144 nM at PTH/PTHrP receptor (setting [6]).

“hPTHrP-(1-21)/[Y34]hPTH-(22-34)NH2 [Hybrid-4]”: the IC50 turned out to be 11 nM on PTH-2 receptor [1] (setting [5]) and 19 ± 6 nM on PTH/PTHrP receptor (setting [6]). Further, the EC50 on PTH-2 receptor [2] is greater than 1000 nM.

Consider “hPTHrP-(1-23)/[Y34]hPTH-(24-34)NH2 [Hybrid 3]”, for which the IC50 is 6050 nM at PTH-2 receptor [1] (setting [5]); roughly 6000 nM at PTH-2 receptor [1] (read-out: Binding IC50, PTH-2 receptor, radioligand 125I-[Nle8,21,Y34]rPTH-(1-34)NH2, 2 hours at room temperature, mean ± s.e.m., listed as hybrid-3); 1000 nM at PTH/PTHrP receptor (setting [6]). In addition, the EC50 on PTH-2 receptor [2] was greater than 1000 nM.
